This note sets out measurements from US10172961B2 (priority 2014, dated 2019).

Protein sequences, listed by entry. Tags and fused reporters are not part of them. Residues count along the entry.
UniProt P06828, 110-539 limits assumed: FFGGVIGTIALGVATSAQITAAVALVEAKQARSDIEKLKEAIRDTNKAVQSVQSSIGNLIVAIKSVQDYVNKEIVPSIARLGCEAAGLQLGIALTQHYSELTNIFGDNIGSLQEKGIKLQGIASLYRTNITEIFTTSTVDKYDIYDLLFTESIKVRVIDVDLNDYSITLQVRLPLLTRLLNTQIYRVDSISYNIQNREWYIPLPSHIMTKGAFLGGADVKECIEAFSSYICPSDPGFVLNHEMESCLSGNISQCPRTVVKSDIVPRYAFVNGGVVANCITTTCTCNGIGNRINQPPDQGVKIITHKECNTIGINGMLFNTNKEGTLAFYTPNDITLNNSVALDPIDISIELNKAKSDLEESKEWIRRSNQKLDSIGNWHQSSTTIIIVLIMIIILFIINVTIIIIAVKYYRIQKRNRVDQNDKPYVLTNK
UniProt P06828, 19-109 partner limits assumed: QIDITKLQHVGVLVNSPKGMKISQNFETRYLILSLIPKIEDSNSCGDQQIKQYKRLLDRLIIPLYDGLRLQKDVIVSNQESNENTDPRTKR

One data set relates to HPIV3. Details: species or system cotton rats. As to conditions: rat, in vivo, ip, 5 mg/kg.
The target of data set [1] is HPIV3 envelope glycoproteins (Human parainfluenza 3 virus, UniProt P06828). Briefly: cell-based. As to conditions: read-out: IC90 nM, in vitro efficacy. Details: species or system Human parainfluenza virus type 3.
The conditions of data set [2]: mouse, in vivo, sc, 2 mg/kg.

As a reminder, the IC90 is the concentration at which the effect reaches the 90% level. `CC[C@H](C)[C@H](NC(=O)[C@H](CO)NC(=O)[C@H](CC(=O)O)NC(=O)[C@H](CC(C)C)NC(=O)[C@@H](NC(=O)[C@H](CCCCN)NC(=O)[C@H](CC(N)=O)NC(=O)[C@H](CO)NC(=O)[C@H](CCCNC(=N)N)NC(=O)[C@H](CCCNC(=N)N)NC(=O)[C@@H](NC(=O)[C@H](Cc1c[nH]c2ccccc12)NC(=O)[C@H](CCC(=O)O)NC(=O)[C@H](CCCCN)NC(=O)[C@H](CO)NC(=O)[C@H](CCC(=O)O)NC(=O)[C@H](CCC(=O)O)NC(=O)[C@H](CC(C)C)NC(=O)[C@H](CC(=O)O)NC(=O)[C@H](CO)NC(=O)[C@H](CCCCN)NC(=O)[C@@H](NC(=O)[C@H](CCCCN)NC(=O)[C@H](CC(N)=O)NC(=O)[C@H](CC(C)C)NC(=O)[C@@H](NC(=O)[C@@H](NC(=O)[C@H](CO)NC(=O)[C@@H](NC(=O)[C@H](CC(=O)O)NC(=O)[C@@H](NC(=O)[C@@H]1CCCN1C(=O)[C@H](CC(=O)O)NC(=O)[C@H](CC(C)C)NC(=O)[C@H](C)NC(=O)[C@@H](NC(C)=O)C(C)C)[C@@H](C)CC)[C@@H](C)CC)[C@@H](C)CC)C(C)C)[C@@H](C)CC)[C@@H](C)CC)[C@@H](C)CC)C(=O)NCC(=O)N[C@@H](CO)C(=O)NCC(=O)N[C@@H](CO)C(=O)NCC(=O)N[C@@H](CSCC(=O)NCCOCCOCCOCCOCCC(=O)Oc1c(C)c(C)c2c(c1C)CC[C@@](C)(CCC[C@H](C)CCC[C@H](C)CCCC(C)C)O2)C(N)=O` [VIKI-PEG4-toc]: the “total amount of virus present in the lungs” value with HPIV3 was “significantly reduced the total amount of virus present in the lungs”. Moreover, the IC90 in data set [1] turned out to be 100 nM. Also, the “presence of peptide in the brain (staining)” value in data set [2] is recorded as “present in the brain”. For the molecule `CC[C@H](C)[C@H](NC(=O)[C@H](CO)NC(=O)[C@H](CC(=O)O)NC(=O)[C@H](CC(C)C)NC(=O)[C@@H](NC(=O)[C@H](CCCCN)NC(=O)[C@H](CC(N)=O)NC(=O)[C@H](CO)NC(=O)[C@H](CCCNC(=N)N)NC(=O)[C@H](CCCNC(=N)N)NC(=O)[C@@H](NC(=O)[C@H](Cc1c[nH]c2ccccc12)NC(=O)[C@H](CCC(=O)O)NC(=O)[C@H](CCCCN)NC(=O)[C@H](CO)NC(=O)[C@H](CCC(=O)O)NC(=O)[C@H](CCC(=O)O)NC(=O)[C@H](CC(C)C)NC(=O)[C@H](CCC(N)=O)NC(=O)[C@H](CO)NC(=O)[C@H](CCCCN)NC(=O)[C@@H](NC(=O)[C@H](CCCCN)NC(=O)[C@H](CC(N)=O)NC(=O)[C@H](CC(C)C)NC(=O)[C@@H](NC(=O)[C@@H](NC(=O)[C@H](CO)NC(=O)[C@@H](NC(=O)[C@H](CC(=O)O)NC(=O)[C@@H](NC(=O)[C@@H]1CCCN1C(=O)[C@H](CC(=O)O)NC(=O)[C@H](CC(C)C)NC(=O)[C@H](C)NC(=O)[C@@H](NC(C)=O)C(C)C)[C@@H](C)CC)[C@@H](C)CC)[C@@H](C)CC)C(C)C)[C@@H](C)CC)[C@@H](C)CC)[C@@H](C)CC)C(=O)NCC(=O)N[C@@H](CO)C(=O)NCC(=O)N[C@@H](CO)C(=O)NCC(=O)N[C@@H](CSCC(=O)NCCOCCOCCOCCOCCOCCOCCOCCOCCOCCOCCOCCOCCOCCOCCOCCOCCOCCOCCOCCOCCOCCOCCOCCOCCC(=O)Oc1c(C)c(C)c2c(c1C)CC[C@@](C)(CCC[C@H](C)CCC[C@H](C)CCCC(C)C)O2)C(N)=O` [VIQKI-PEG24-toc], the IC90 in data set [1] amounted to 10 nM.

Take `CC[C@H](C)[C@H](NC(=O)[C@H](CO)NC(=O)[C@H](CC(=O)O)NC(=O)[C@H](CC(C)C)NC(=O)[C@H](CCCCN)NC(=O)CNC(=O)[C@H](CC(N)=O)NC(=O)[C@H](CO)NC(=O)[C@H](CCCNC(=N)N)NC(=O)[C@H](CCCNC(=N)N)NC(=O)[C@@H](NC(=O)[C@H](Cc1c[nH]c2ccccc12)NC(=O)[C@H](CCC(=O)O)NC(=O)[C@H](CCCCN)NC(=O)[C@H](CO)NC(=O)[C@H](CCC(=O)O)NC(=O)[C@H](CCC(=O)O)NC(=O)[C@H](CC(C)C)NC(=O)[C@H](CC(=O)O)NC(=O)[C@H](CO)NC(=O)[C@H](CCCCN)NC(=O)[C@H](C)NC(=O)[C@H](CCCCN)NC(=O)[C@H](CC(N)=O)NC(=O)[C@H](CC(C)C)NC(=O)[C@@H](NC(=O)[C@@H](NC(=O)[C@H](CO)NC(=O)[C@@H](NC(=O)[C@H](CC(=O)O)NC(=O)[C@@H](NC(=O)[C@@H]1CCCN1C(=O)[C@H](CC(=O)O)NC(=O)[C@H](CC(C)C)NC(=O)[C@H](C)NC(=O)[C@@H](NC(C)=O)C(C)C)[C@@H](C)CC)[C@@H](C)CC)[C@@H](C)CC)C(C)C)[C@@H](C)CC)C(=O)NCC(=O)N[C@@H](CO)C(=O)NCC(=O)N[C@@H](CO)C(=O)N[C@@H](CSCC(=O)O[C@H]1CC[C@@]2(C)C(=CC[C@H]3[C@@H]4CC[C@H]([C@H](C)CCCC(C)C)[C@@]4(C)CC[C@@H]32)C1)C(N)=O` [VG-chol]: in data set [1], the IC90 is more than 1000 nM.
